What was measured:
[1] = test system: CD18/sgRNA-transfected M2-differentiated THP-1 cells; assay: MTS viability of mock- or CD18/sgRNA-transfected M2 macrophages; format: cell-based, human; conditions: TB511 3 µM 24 h
[2] = test system: CT26 Luc colorectal tumor; assay: Orthotopic CRC mouse model; format: in vivo
[3] = test system: LLC lung tumor; assay: Subcutaneous lung cancer model; format: in vivo, mouse; conditions: LLC s.c., TB511 s.c. twice per week, n=10 WT, n=4 CD18KO
[4] = test system: cell clusters in PANC1 tumor tissue; assay: Spatial transcriptomics; format: in vivo, humanized mice; conditions: UMAP clusters, PBS group 18%
[5] = test system: LLC lung tumor; assay: Subcutaneous NSCLC mouse model; format: in vivo
[6] = test system: bone marrow-derived macrophages; assay: MTS viability of bone marrow-derived macrophages from WT and CD18-KO mice; format: cell-based, mouse; conditions: TB511 2.5 µM 24 h
[7] = test system: M0 or M1 macrophages; assay: Live-cell imaging of caspase 3/7 activation; format: cell-based, human; conditions: TB511 1 µM
[8] = test system: A549 tumor; assay: A549 tumor in immunodeficient mice; format: in vivo, mouse; conditions: immunodeficient SID mice, A549, n=6
[9] = test system: PANC1 tumor; assay: Humanized pancreatic cancer mouse model; format: in vivo; conditions: humanized mice, PANC1 s.c., TB511 twice a week, n=4 per group
[10] = test system: 4T1 tumor; assay: Subcutaneous TNBC mouse model; format: in vivo; conditions: 4T1 s.c., 200 nmol/kg s.c. every 3 days, TB511 n=5
[11] = test system: M2-TAMs; assay: Live-cell imaging of caspase 3/7 activation; format: cell-based, human; conditions: TB511 1 µM
[12] = test system: macrophages, T cells, NK cells, dendritic cells and neutrophils from spleen; assay: Annexin V assay in spleen immune cells; format: cell-based; conditions: mouse spleen CD45+ cells, TB511 1 µM 30 min 37 °C
[13] = test system: CT26-luc colorectal tumor; assay: Orthotopic CRC model; format: in vivo, mouse; conditions: s.c. every 3 days, bioluminescence
[14] = test system: A549 tumor; assay: Humanized NSCLC mouse model; format: in vivo; conditions: humanized mice, A549 s.c., TB511 s.c. every 3 days
[15] = CCK-8 cell viability of M2 macrophages; format: cell-based, human

## CC[C@H](C)[C@H](NC(=O)[C@H](CC(C)C)NC(=O)[C@H](C)NC(=O)[C@@H]1CCCN1C(=O)[C@H](CC(C)C)NC(=O)CNC(=O)[C@@H](NC(=O)[C@@H](NC(=O)[C@H](CC(C)C)NC(=O)[C@@H](NC(=O)COCCOCCN)C(C)C)[C@@H](C)O)[C@@H](C)O)C(=O)N[C@@H](CO)C(=O)N[C@@H](Cc1c[nH]c2ccccc12)C(=O)N[C@H](C(=O)N[C@@H](CCCCN)C(=O)N[C@@H](CCCNC(=N)N)C(=O)N[C@@H](CCCCN)C(=O)N[C@@H](CCCNC(=N)N)C(=O)N[C@@H](CCC(N)=O)C(=O)N[C@@H](CCC(N)=O)C(=O)NCC(=O)NCC(=O)NCC(=O)NCC(=O)N[C@@H](CO)C(=O)N[C@H](CCCCN)C(=O)N[C@H](CC(C)C)C(=O)N[C@H](C)C(=O)N[C@H](CCCCN)C(=O)N[C@H](CC(C)C)C(=O)N[C@H](C)C(=O)N[C@H](CCCCN)C(=O)N[C@H](CCCCN)C(=O)N[C@H](CC(C)C)C(=O)N[C@H](C)C(=O)N[C@H](CCCCN)C(=O)N[C@H](CC(C)C)C(=O)N[C@H](C)C(=O)N[C@H](CCCCN)C(=O)O)[C@@H](C)CC [TB511]
[1]
  Cytotoxicity in CD18/sgRNA-transfected versus mock-transfected cells: significantly diminished in CD18/sgRNA-transfected cells compared with mock-transfected cells
[2]; CRC tissues, IHC, n=7
  Number of CD8+ T and Granzyme B+ cells in tumor: significantly increased following TB511 treatment
[2]; CRC tumor tissue, flow cytometry, n=4
  Number of M2-TAMs (CD206+F4/80+CD45+ cells) in tumor: significantly reduced in the TB511 group compared with the control group
[2]; orthotopic CT26 Luc, 200 nmol/kg s.c. every 3 days, in vivo imaging, n=12
  Tumor growth: markedly suppressed tumor growth
[3]
  Antitumoral effects (tumor volume), WT versus CD18-KO mice: only evident in the WT mice and not in CD18-KO mice
[4]
  Proportion of immune cells in tumor tissue: 23%
[5]; LLC s.c., 200 nmol/kg s.c. every 3 days, caliper, n=12
  Tumor growth: significantly suppressed
[5]; lung cancer tissue, flow cytometry, n=5
  Number of M1 and M2 macrophages in tumor: significantly increased the number of M1 macrophages while reducing M2 macrophages
[6]
  Cytotoxicity in BMDMs from CD18-KO mice: diminished in bone marrow-derived macrophages obtained from CD18-KO mice
[7]
  Caspase 3/7 activation: not observed in M0 or M1 macrophages
[8]
  Antitumor effect (tumor volume): completely disappeared
[9]
  Tumor growth: significantly inhibited tumor growth
[10]
  Tumor growth: suppressed tumor growth
[11]
  Time at which activation of caspase 3/7 was detected: ≤ 5 min
  Time of peak caspase 3/7 activation after incubation: 15 min
[12]
  Apoptosis (Annexin V) in immune cell types: induced more apoptosis in macrophages than in other immune cells
[13]; n=3
  Tumor size, CD18-KO mice: these effects were not observed in CD18-KO mice
[13]; n=5
  Tumor size, WT mice: significantly reduced the tumor size in WT mice
[14]
  Anticancer effect (tumor growth): profound anticancer effects were observed
[15]
  IC50: 4.92 µM

Source: publication PMC11973759 (Journal for Immunotherapy of Cancer, 2025)
